Ab-14 light chain CDR variants: yeast mating affinities

The measurements come from Engelhart et al. 2022 (doi:10.1038/s41597-022-01779-4) through the FLAb antibody collection.

The target is the same throughout: PDVDLGDISGINAS, from the HR2 region of SARS-CoV-2 spike.

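The parent was found by panning a naive human phage display library on the peptide. The library (AAYL50) carries one to three amino acid substitutions per variant, with no insertions or deletions. AlphaSeq pools MATa yeast showing the antibodies with MATalpha yeast showing the peptide. The frequency of each diploid, read from paired DNA barcodes, reflects how well the two displayed proteins bind. Each replicate has its own calibration line, from reference interactions of the BCL2 family. The assay was run in three technical replicates.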

Ab-14 is the parent antibody, in scFv form: VH, then a (GGGGS)3 linker, then VL. The heavy chain is unchanged in all variants.
VH: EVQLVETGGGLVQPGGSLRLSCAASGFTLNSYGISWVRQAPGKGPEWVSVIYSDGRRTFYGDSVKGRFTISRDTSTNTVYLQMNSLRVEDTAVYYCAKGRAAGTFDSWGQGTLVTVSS
VL: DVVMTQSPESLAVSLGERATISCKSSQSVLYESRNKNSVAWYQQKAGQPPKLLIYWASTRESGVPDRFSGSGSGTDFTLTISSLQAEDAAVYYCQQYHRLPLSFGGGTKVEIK

Positions count from residue 1 of the parent VL; E32R puts R in place of E.
All variants listed here change T59 of the VL, counted from its first residue.
The Kd shown is the geometric mean over detected replicates; a lower Kd is a better binder.
Where no diploid with the target was found in any replicate, the entry reads "no signal": below detection, most likely a poor binder, though not proof of it.

* E32R+S58W+T59C: 1.5 µM (1 of 3 replicates; controls 2 of 9)
* T59G+Q95M+P101C: 530 µM (1 of 3 replicates; controls 4 of 9)
* S38G+T59M+Y97D: 120 nM (3 of 3 replicates; controls 2 of 9)
* Q27P+L30S+T59A: 25 nM (3 of 3 replicates; controls 5 of 9)
* K24T+T59H: 120 nM (3 of 3 replicates; controls 3 of 9)
* K24G+S25P+T59P: 22 µM (1 of 3 replicates; controls 0 of 9)
* W56C+T59W+R99Y: 100 µM (2 of 3 replicates; controls 6 of 9)
* S26E+S38K+T59P: 8.4 µM (1 of 3 replicates; controls 2 of 9)
* K24P+L30S+T59R: no signal (0 of 3 replicates; controls 0 of 9)
* S33I+T59R+S62E: 760 nM (3 of 3 replicates; controls 4 of 9)
* T59Y+Q96A+Y97W: 380 nM (3 of 3 replicates; controls 1 of 9)
* S25Y+K36V+T59P: no signal (0 of 3 replicates; controls 0 of 9)
* N35G+T59Y+Q96T: 68 nM (3 of 3 replicates; controls 4 of 9)
* S28T+T59M+Q95I: 1.1 µM (1 of 3 replicates; controls 0 of 9)
* T59K: no signal (0 of 3 replicates; controls 2 of 9)
* T59W+H98Q+S103L: 8.0 µM (2 of 3 replicates; controls 0 of 9)
* S33V+T59H+L100D: no signal (0 of 3 replicates; controls 0 of 9)
* R34M+T59C+Q96H: 360 nM (3 of 3 replicates; controls 0 of 9)
* L30Y+S58H+T59W: 170 nM (3 of 3 replicates; controls 1 of 9)
* V39N+T59G+R60G: 76 µM (1 of 3 replicates; controls 1 of 9)
* K24I+S28Q+T59N: 340 nM (1 of 3 replicates; controls 1 of 9)
* L30G+T59H+H98G: 3.8 nM (3 of 3 replicates; controls 0 of 9)
* S25K+W56C+T59E: 780 nM (3 of 3 replicates; controls 1 of 9)
* T59W+E61Q+L102E: no signal (0 of 3 replicates; controls 0 of 9)
* Q27T+A57R+T59I: 65 nM (3 of 3 replicates; controls 1 of 9)
* T59H+Y97W+P101F: no signal (0 of 3 replicates; controls 0 of 9)
* K36G+T59M+Q95N: no signal (0 of 3 replicates; controls 0 of 9)
* T59H+Y97S+S103V: 57 µM (1 of 3 replicates; controls 1 of 9)
* A57M+T59N: 1.6 µM (3 of 3 replicates; controls 6 of 9)
* Y31D+S33K+T59D: no signal (0 of 3 replicates; controls 0 of 9)
* L30C+S58G+T59E: 11 nM (3 of 3 replicates; controls 0 of 9)
* T59A+R60D+H98N: 10 µM (1 of 3 replicates; controls 2 of 9)
* V29M+T59L+R99N: 40 nM (3 of 3 replicates; controls 0 of 9)
* S33G+T59E+Q95E: 77 nM (3 of 3 replicates; controls 2 of 9)
* T59Y: 20 nM (3 of 3 replicates; controls 1 of 9)
* L30C+R34T+T59V: 150 nM (3 of 3 replicates; controls 4 of 9)
* R34M+N35C+T59H: 6.4 µM (2 of 3 replicates; controls 2 of 9)
* N37T+T59I+H98V: 47 nM (3 of 3 replicates; controls 2 of 9)
* S28F+A40R+T59Y: no signal (0 of 3 replicates; controls 0 of 9)
* L30V+V39G+T59Q: 310 µM (3 of 3 replicates; controls 1 of 9)
* T59I+S62M+S103G: 240 nM (3 of 3 replicates; controls 0 of 9)
* S26N+T59E+Y97A: no signal (0 of 3 replicates; controls 0 of 9)

Again, the first 5 entries without any signal:

changes,Kd (apparent),replicates with signal,control signals
K24P+L30S+T59R,no signal,0/3,0/9
S25Y+K36V+T59P,no signal,0/3,0/9
T59K,no signal,0/3,2/9
S33V+T59H+L100D,no signal,0/3,0/9
T59W+E61Q+L102E,no signal,0/3,0/9

Parent in this assay: reference entry 4.4 nM, copy in this library 48 nM.
Empty control strains, which show no peptide, gave a signal in 18% of pairings with library AAYL50; the median was 15 µM and 95% of these signals were weaker than 970 nM. No background was subtracted. The control count says in how many pairings with the empty strains this scFv gave a signal.